According to PubChem BioAssay AID651725 (National Center for Advancing Translational Sciences (NCATS), 2012):
This is a selection; strong and weak results do not stand in their true shares. The source made the active and inactive calls. Cut-off read from the data, not from the text of the source: active = activity change below about -65%; inconclusive = mostly about -30% to -63%; inactive = weaker than that.
% is set by controls: 0 for no effect and ±100 for the full control effect.

Protein sequences, listed by entry. Tags and fused reporters are not part of them.
UniProt Q15475, whole entry: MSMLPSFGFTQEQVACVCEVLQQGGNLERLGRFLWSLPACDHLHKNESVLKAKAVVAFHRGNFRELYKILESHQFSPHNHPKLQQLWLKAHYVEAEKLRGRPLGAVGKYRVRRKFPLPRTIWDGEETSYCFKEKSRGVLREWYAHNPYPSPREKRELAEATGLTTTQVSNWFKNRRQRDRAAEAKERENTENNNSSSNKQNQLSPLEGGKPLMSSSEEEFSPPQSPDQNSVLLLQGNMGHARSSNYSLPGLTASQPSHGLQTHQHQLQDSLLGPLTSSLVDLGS

The compounds below were run against Homeobox protein SIX1 (Homo sapiens) + Protein phosphatase EYA2 (Homo sapiens) (UniProt Q15475+O00167) (assay: qHTS Assay for Inhibitors of the Six1/Eya2 Interaction). Settings: AlphaScreen GST-Six1/His-Eya2 binding, biochemical; stronger effect = lower value.
Excerpt: Its expression is low or undetectable in normal adult breast tissue but the gene is over-expressed in 50% of primary breast tumors and 90% of metastatic lesions. […] Similar to Six1, Eya2 is also not expressed in most normal adult tissues, but is reexpressed in cancers. The Six1-Eya interaction is essential for proliferation during embryonic development, and both Six1 and Eya2 have been independently implicated in the same types of cancer. Because Six1 and Eya2 are embryonic genes with little expression in adult tissues, inhibitors of their expression/activity are likely to have limited side effects. Our goal is to identify inhibitors of the Six1/Eya interaction for potential cancer therapy. To this end, we have developed a homogenous AlphaScreen assay targeting the Six1/Eya interaction. We performed a large scale HTS of the Molecular Libraries Small Molecule Repository (MLSMR) to identify inhibitors of the Six1/Eya interaction as potential anti-cancer therapeutics. Compounds identified can also be used as chemical probes to better understand the biological functions of Six1 and Eya. […]
The first step of the 5 uL AlphaScreen assay is to dispense assay buffer (50 mM Tris, pH 8.0, 300 mM NaCl, 0.05% BSA, 0.02% Tween 20, 1 mM TCEP) into a Greiner 1536 white solid bottom microtiter plate (789175-F). […] The plate is read using a Perkin Elmer Envision using an AlphaScreen protocol.
With `Nc1ccccc1[As](=O)(O)c1ccccc1` the activity change was inactive: -1.28%.
